Assay [1] deals with ER+ locally advanced breast cancer. In words: pCR after pre-operative anthracycline based combination chemotherapy, multicentre transcript cohort stratified by SPAG5 mRNA. The format is in vivo, human. The conditions noted are these: Multicentre neoadjuvant chemotherapy (MC-NACT) cohort (n = 1073); yes vs no. The method, then:
C) Assessment of Complete Pathological Response (pCR; Complete Disappearance of Tumour Cells in Breast and Lymph Node) after Receiving Pre-Operative Anthracycline Based Combination Chemotherapy Therapy for ER+ Locally Advanced Breast Cancer Patients (i.e. Examples 39 to 44)
The association between SPAG5 mRNA expression and pCR was evaluated in 2208 patients with locally advanced BC who received anthracycline based combination chemotherapy (E, AC, or FEC) with (+) or without (−) taxane (T). SPAG5 mRNA expression data has been retrieved from 11 publically available gene expression microarray datasets at the National Centre for Biotechnology Information Gene Expression Omnibus using the following access numbers.
The patients had received the following pre-operative chemotherapy.
SPAG5 gene expression data of each database were converted to a common scale (median equal to 0 and standard deviation equal to 1) in order to merge all of the studies data that used the same platform and create combined cohorts. To convert to a common scale each sample in the data was standardised to a mean of 0 and standard deviation of 1. […] Databases using same platform have been merged and the median expression was calculated. The median expression of SPAG5 transcript for each platform has been calculated and values equal to or higher than the median coded as +1 (overexpression). […]

Assay [2] relates to locally advanced breast cancer. As to the kind of experiment: 5-year relapse/disease free survival after neoadjuvant chemotherapy by adjuvant HER2 target therapy, NUH cohort. The conditions noted are these: pre-NACT HER2+ cases that remained HER2+ post NACT (64/73). The class given is in vivo, human.

2 substances from patent publication US20210341482A1, “CANCER BIOMARKERS” (NOTTINGHAM UNIVERSITY HOSPITALS NHS TRUST, priority 2018, published 2021) can be followed below.

Regarding “Trastuzumab NACT: Trastuzumab given as neoadjuvant therapy, covariate of the regression”, the “OR for pCR, multivariable logistic regression” value in assay [1] stood at 0.66.
As to “HER2 Target therapy: adjuvant HER2 target therapy for one year; Trastuzumab according to the cohort method”, in assay [2], the “5-year DFS” value worked out at 75%.
